Data from US8497349B2, “Use of multivalent synthetic ligands of surface nucleolin for treating cancer or inflammation” (Centre National de la Recherche Scientifique (CNRS), priority 2006, dated 2013).

Experiments:
HUVEC cells = experiment: In vitro proliferation of HUVEC cells (cell count); format: cell-based, human; details: added each day; counted after 6 days
Description: FIG. 8. Effect of HB-19 on angiogenesis. A. Effect of HB19 tested on in vitro proliferation of HUVEC cells. 20000 HUVEC cells were cultured in wells and compound HB19 was added in different concentrations on each day. Cells were counted after 6 days of treatment. B. Effect of HB19 (1 μM) on the differentiation of HUVEC cells in a three-dimensional collagen gel cultured in the presence of HARP angiogenic factors (1 nM); VEGF (1 nM) and FGF-2 (3 nM) were also tested. After 4 days, tubular network structures were counted. The results are presented in arbitrary units. C. Effect of HB-19 on angiogenesis triggered HARP or FGF-2 in an in vivo angiogenesis model (/matrigel <<plug assay>>). Matrigel (300 μl) containing the indicated molecules is injected subcutaneously into mice. Mice were sacrificed after one week and matrigel was removed. 8 μm thick cuts were performed. After staining, the number of endothelial cells is estimated by image analysis. For each matrigel, 5 cuts and 4 mice were analysed per experimental point.
Firstly, this effect was tested on the in vitro proliferation of endothelial cells (HUVEC: Human umbilical vein endothelial cells). 20000 HUVEC cells per well were cultured and compound HB19 was added in different concentrations on each day. Cells were counted after 6 days of treatment.

[1] = Solubility in aqueous media; format: physicochemical
CAM vessels = experiment: Ex vivo angiogenesis model, chorio-allantoic membrane (CAM) of chicken embryo; details: 10 μM; 48 hours of incubation
Description: FIG. 17. Inhibition of angiogenesis in an ex vivo CAM model. 20 μl of water containing or not (control) HB-19 (10 μM; 0.6 μg) or Nucant 7 (10 μM; 0.8 μg) are deposited on the surface of CAM. Observation of vessels is carried out after 48 hours of incubation.
The effect of HB-19 and Nucant 7 on angiogenesis was tested in an ex vivo model of angiogenesis, the chorio-allantodoin membrane (CAM) of chicken embryo.
20 μl of water containing or not (control) HB-19 (10 μM; 0.6 μg) or Nucant 7 (10 μM; 0.8 μg) are deposited on the surface of CAM. Observation of vessels was carried out after 48 h of incubation

TNF-α = TNF-α production by primary peritoneal murine macrophages stimulated by LPS (ELISA); format: cell-based, mouse; details: 4 μM of HB-19; LPS 100 and 1000 ng/ml; base level taken into account
Description: FIG. 19. Inhibition by HB-19 of the production of TNF-α and IL-6 by primary peritoneal murine macrophages stimulated by various LPS preparations. Peritoneal murine macrophages in the absence (−) or presence (+) of 4 μM of HB-19 were either not stimulated (B4 0) or stimulated with LPS from Escherichia coli type 0111:B4 at 100 ng/ml (B4 100) and 1000 ng/ml (B4 1000). Cell cultures were incubated at 37° C. in an incubator with 5% CO2 for 20 hours and levels of TNF-α (A) and IL-6 (B) were measured by ELISA.
FIG. 20. Inhibition by Nucant 7 of the production of TNF-α and IL-6 by primary peritoneal murine macrophages stimulated by various LPS. Peritoneal murine macrophages in the absence (−) or presence (+) of 10 μM of Nucant 7 were either not stimulated (−) or stimulated (+) with LPS from Escherichia coli type 0111:B4 at 10 ng/ml, 100 ng/ml and 1000 ng/ml. Cell cultures were incubated at 37° C. in an incubator with 5% CO2 for 20 hours and levels of TNF-α (A) and IL-6 (B) were measured by ELISA. […]
Macrophages, in the absence (−) or presence (+) of 4 μM HB-19 or 10 μM Nucant 7, were either non-stimulated or stimulated with LPS from Escherichia Coli serotype 0111:B4 at 10 ng/ml, 100 ng/ml and 1000 ng/ml. […] TNF-α and IL-6 protein levels were measured by ELISA.

IL-8 = IL-8 production by HUVEC cells stimulated by LPS (ELISA); format: cell-based, human; details: 5 μM of HB-19; LPS 100 ng/ml; 20 hours
Description: FIG. 21. Inhibition by HB-19 of IL-8 production and ICAM-1 expression by human umbilical vascular endothelial cells (HUVEC) stimulated by LPS. HUVEC cells at 10 000 cells/cm^2 were cultured in 96-well plates in EBM-2 medium containing 2% foetal calf serum. Cells in the absence or presence of 5 μM of HB-19 were stimulated with Escherichia coli serotype 055:B5 at 100 ng/ml. Cell cultures were incubated at 37° C. in an incubator with 5% CO2 for 20 hours and IL-8 and ICAM-1 protein levels were measured by ELISA. HUVEC cells in the presence or absence of 5 μM of HB-19 were used as the control for base levels.
HUVEC cells at a concentration of 10 000 cells/cm^2 were cultured in 96-well plates in EBM-2 medium containing 2% foetal calf serum. Cells in the absence or presence of 5 μM of HB-19 were stimulated by LPS from Escherichia coli serotype 055:B5 at 100 ng/ml. Cell cultures were incubated at 37° C. in an incubator with 5% CO2 for 20 hours. Levels of IL-8 and ICAM-1 were measured by ELISA. HUVEC cells in the absence or presence of 5 μm of HB-19 were used as a control to show the base level.

With `CCCC[C@H](NC(=O)[C@H](CCCCNC(=O)[C@H](CCCNC(=N)N)NC(=O)[C@@H]1CCCN1C[C@@H](N)CCCCN)NC(=O)[C@H](CCC(=O)O)NC(=O)[C@H](CCCCNC(=O)[C@H](CCCNC(=N)N)NC(=O)[C@@H]1CCCN1C[C@@H](N)CCCCN)NC(=O)[C@@H]1CCCN1C(=O)CNC(=O)[C@H](CCCCNC(=O)[C@H](CCCNC(=N)N)NC(=O)[C@@H]1CCCN1C[C@@H](N)CCCCN)NC(=O)[C@H](CCCCN)NC(=O)[C@H](CCCCNC(=O)[C@H](CCCNC(=N)N)NC(=O)[C@@H]1CCCN1C[C@@H](N)CCCCN)NC(=O)[C@H](CCCNC(=N)N)NC(=O)[C@@H]1CCCN1C[C@@H](N)CCCCN)C(N)=O` [HB19, 5[Kpsi(CH2N)PR]-TASP] the “effect on proliferation of endothelial cells” value (HUVEC cells) was “leads to inhibition”, the half-life (In vivo half life) was over 24 h and the “solubility in aqueous media” value [1] was “totally soluble”. The “inhibition of angiogenesis compared to the control (image analysis)” value (CAM vessels) was about 50%, the “net degree of inhibition of TNF-α production” value (TNF-α) was 72-75% and the “degree of inhibition of IL-8 production” value (IL-8) was “around 50%”.
